Test results from article PMC9493007.

Test system: Nc1ncnc2c1ncn2[C@@H]1O[C@H](COP(=O)(O)OP(=O)(O)OP(=O)(O)O)[C@@H](O)[C@H]1O
Assay: purified protein
Conditions: 20 mM Tris pH 8.0, 100 mM NaCl, 10 mM MgCl2, 1 mM DTT, 0.025% BSA, 5% glycerol, 5 µM protein, Hill fit, cooperative

For “YsaN (Yersinia enterocolitica subsp. enterocolitica 8081)”, the K0.5 was 758.7 ± 84.35 µM.
